Tests used:
CBP bromodomain = CBP bromodomain (Homo sapiens, UniProt Q92793); assay: BROMOscan competition binding assay; settings: according to BROMOscan
bromodomain of CBP = bromodomain of CBP (Homo sapiens, UniProt Q92793); assay: Alpha Screen assay; format: binding; settings: according to AlphaScreen

The chains behind the UniProt entries cited, without tags or fusion partners. Residues count along the entry.
UniProt Q92793, 1085-1192 limits assumed: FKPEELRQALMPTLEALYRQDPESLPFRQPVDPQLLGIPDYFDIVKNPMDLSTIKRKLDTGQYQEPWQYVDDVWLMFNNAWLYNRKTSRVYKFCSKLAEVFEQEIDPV

## CCOc1ccc(C(C)=O)cc1NC(=O)c1cc(NC(C)=O)cc(NC(=O)c2ccco2)c1 [Compound 16]
CBP bromodomain
  ligand efficiency for CBP: 0.31 kcal mol^–1 per non-hydrogen atom
Bromodomain of CBP
  ligand efficiency for CBP: 0.32 kcal mol^–1 per non-hydrogen atom

From paper PMC5833004 (ACS Central Science, 2018)
